From ChEMBL document CHEMBL5338737, “Lysine-Specific Demethylase 1 Promises to Be a Novel Target in Cancer Drug Resistance: Therapeutic Implications” (J Med Chem, 2023) come the findings set out here.

Chains of the proteins cited; added tags and fusions are not shown.
UniProt P21397, whole entry: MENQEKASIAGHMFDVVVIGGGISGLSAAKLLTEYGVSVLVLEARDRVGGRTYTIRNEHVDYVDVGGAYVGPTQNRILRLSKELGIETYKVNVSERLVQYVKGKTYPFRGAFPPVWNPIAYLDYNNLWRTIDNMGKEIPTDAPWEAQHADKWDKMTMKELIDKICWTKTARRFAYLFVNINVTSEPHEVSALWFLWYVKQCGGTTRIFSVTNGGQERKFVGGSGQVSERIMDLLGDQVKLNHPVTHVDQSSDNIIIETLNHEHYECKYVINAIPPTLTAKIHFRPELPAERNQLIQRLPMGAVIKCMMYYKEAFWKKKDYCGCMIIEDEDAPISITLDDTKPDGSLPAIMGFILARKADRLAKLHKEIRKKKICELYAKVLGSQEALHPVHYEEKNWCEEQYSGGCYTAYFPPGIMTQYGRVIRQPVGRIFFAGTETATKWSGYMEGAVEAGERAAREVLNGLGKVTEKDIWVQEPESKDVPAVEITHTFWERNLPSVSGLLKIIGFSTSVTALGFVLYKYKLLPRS

This test deals with Amine oxidase [flavin-containing] A (Homo sapiens, UniProt P21397). As to the kind of experiment: Binding affinity to MAO-A (unknown origin) assessed as inhibition constant.

The Ki is a measure of affinity in units of concentration, obtained from inhibition or displacement. Regarding `C#CCN(C)Cc1ccccc1` [PARGYLINE], the inhibition constant (Ki) was 13 µM.
